Inhibition data for 24 molecules are collected here from PubChem BioAssay AID1362 (SRMLSC, 2008).

The inhibition is the drop in the measured response relative to a control, in per cent.

Only a part is listed here, and it is no random draw. Calls of active or inactive are those of the source. No stated cut-off is given here; in the data, active means inhibition above about 58%; inactive means the rest, inconclusive results apart; tested in S. cerevisiae.

This assay can be described thus: growth inhibition of WT strain, primary screen, mitochondrial fusion inhibitor project, WT and mutant strains, chemical genetic (AID 1362). Conditions: mitochondrial fusion phenotypic screen, at 10 µM, active compounds read high.
`CCOC(=O)N1CCC(Nc2ccc(OC)cc2)CC1`: the inhibition was inactive: -8.61%.

Regarding `O=C(OC1CN2CCC1CC2)C1c2ccccc2Oc2ccccc21` (centres undefined), the inhibition is inactive: 7.1%.

Consider `COc1ccc(C(=O)NCC2(N3CCCCC3)CCCCC2)c(OC)c1OC`, for which the inhibition was inactive: 4.97%.

In the case of `COc1ccc(NC2CCN(CCc3ccccc3)CC2)c(OC)c1`, the inhibition was inactive: -1.96%.

For the molecule `COc1ccc(NC2CCN(C(=O)OC(C)(C)C)CC2)cc1`, the inhibition is inactive: -9.59%.

Turning to `CN1CCN(CCOC(=O)C(O)(c2ccccc2)c2ccccc2)CC1`, the inhibition is inactive: -7.14%.

As to `O=C(NCC1(N2CCOCC2)CCCCC1)c1cc(=O)[nH]c2ccccc12`, the inhibition was inactive: -7.26%.

Turning to `O=C(NCC1(N2CCCCC2)CCCCC1)c1cccc([N+](=O)[O-])c1`, the inhibition is inactive: 12.9%.

For `N#CC1(Nc2ccccc2)CCN(CCc2ccccc2)CC1`, the inhibition was inactive: 5.72%.

In the case of `COc1ccc(CN(CCCl)CCCl)cc1Cl`, the inhibition was inactive: -8.52%.

For the molecule `CN(C)c1cccc(C(=O)NCC2(N3CCCCC3)CCCCC2)c1`, the inhibition is inactive: -9.85%.

On to `CC(C)c1ccc(NC2CCN(C(=O)OC(C)(C)C)CC2)cc1`, for which the inhibition is inactive: 21.5%.

Take `O=C(OC1CN2CCC1CC2)C1c2ccccc2C=Cc2ccccc21` (centres undefined): the inhibition is inactive: -4.87%.

As to `N/C(=N\O)c1c(N)no[n+]1[O-]`, the inhibition was inactive: 13.4%.

With `COc1ccc(C(=O)NCC2(N3CCOCC3)CCCCC2)cc1OC`, the inhibition was inactive: -17.2%.

`c1ccc(CN2CCC(Nc3ccccc3)CC2)cc1`: the inhibition was inactive: 14.3%.

Turning to `N#Cc1ccc(C(=O)NCC2(N3CCCCC3)CCCCC2)cc1`, the inhibition is inactive: -17.8%.

For `CN(C)c1ccc(C(=O)NCC2(N3CCCCC3)CCCCC2)cc1`, the inhibition was inactive: -6.53%.

As to `CCN1CCC(Nc2cccc(F)c2)CC1`, the inhibition is inactive: 6.39%.

Take `Fc1ccccc1NC1CCN(Cc2ccccc2)CC1`: the inhibition is inactive: 1.76%.

In the case of `CCC(CO)(C(=O)OC1CN2CCC1CC2)c1ccccc1` (centres undefined), the inhibition is inactive: 17.7%.

As to `COc1cc(OC)cc(C(=O)NCC2(N3CCOCC3)CCCCC2)c1`, the inhibition is inactive: -11.8%.

With `CC(C)(C)OC(=O)N1CCC(Nc2ccccc2)CC1`, the inhibition was inactive: -9.78%.

For the molecule `CCOc1ncccc1C(=O)NCC1(N2CCOCC2)CCCCC1`, the inhibition is inactive: -11.1%.
